Assay results reported in US11987642B2, “Bispecific HER2 and CD3 binding molecules” (MEMORIAL SLOAN KETTERING CANCER CENTER, priority 2014, dated 2024).

Legend:
[1] = system: U2OS osteosarcoma cells; assay: Proliferation assay (WST-8), U2OS; assay type: cell-based, human
Experimental: (§1) Cell proliferation was determined using an ELISA plate reader and the WST-8 kit (Dojindo technologies) following the manufacturer's instructions and using the formula: % survival rate=(Sample-Background)/(Negative control-Background). Lapatinib (MSKCC pharmacy) was ground using a mortar and pestle and suspended in DMSO as previously described. To determine statistical significance, the results were analyzed using one-way ANOVA using Prism 6.0.
U2OS cells are a HER2-positive, EGFR-positive osteosarcoma cell line (FIG. 11A).

[2] = system: HeLa cervical carcinoma cells; assay: Proliferation assay (WST-8), HeLa; assay type: cell-based, human
Experimental: as §1
HeLa cells are a HER2-positive, EGFR-positive cervical carcinoma cell line (FIG. 12A).

[3] = system: SCCHN cell line PCI-30; assay: Proliferation assay (WST-8), PCI-30; assay type: cell-based, human
Experimental: as §1

[4] = system: MCF7 breast cancer cells; assay: Subcutaneous MCF7 xenograft mixed with PBMC; assay type: in vivo, DKO mice
[5] = system: HER2-positive breast carcinoma cell line, AU565; assay: FACS binding to tumor cells; assay type: cell-based, human; conditions: trastuzumab vs HER2-BsAb
[6] = system: HCC1954 breast cancer cells; assay: Subcutaneous HCC1954 xenograft mixed with subcutaneous PBMC; assay type: in vivo, DKO mice

Row | Substance | sensitivity of cells in proliferation assay [1] | sensitivity of cells in proliferation assay [2] | sensitivity of cells in proliferation assay [3] | tumor progression [4] | binding to AU565 cells [5] | tumor progression / tumor growth [6]
1 | cetuximab | resistant | pan-resistant | resistant |  |  | 
2 | trastuzumab | resistant | pan-resistant | resistant | ineffective | comparable binding | no effect
